Consider 24 compounds from PubChem BioAssay AID1899 (The Scripps Research Institute Molecular Screening Center, 2009).

The structures appear in SMILES notation. The entries are a selection whose mix differs from that of the whole data set. Some results for these compounds are left out of this collection, so the calls shown say nothing about other tests. Calls of active or inactive are those of the source.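 The calls were made as follows: active = inhibition above the mean of all tested compounds plus 3 SD, set per screening campaign (cut at about 45% in these data); inactive = the rest.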

The subject of this test is HCV core protein (residues 1-106) dimerization. Briefly: blockers of core106 self-association – biochemical, TR-FRET, high-throughput, primary screen (AID 1899). Particulars: TR-FRET GST/Flag-core106 dimerization, 1536-well; at 5 µM; stronger effect = higher value. The method in brief: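 assay system = GST-tagged and Flag-tagged HCV core protein residues 1-106 | controls = unlabelled core106 and no-GST-core106 wells | incubation = compound-protein-antibody incubation 4 h at 22.5 °C | probe or stimulus = Eu donor and XL665 acceptor anti-tag antibodies | read-out = % inhibition based on acceptor/donor emission ratio | signal = TR-FRET 671 and 617 nm emission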
A general note: Time-resolved FRET reads energy transfer from a long-lived donor to a nearby acceptor.
In general, inhibition refers to the relative decrease from the control value, in per cent. Consider `COc1ccc(C(=O)NCC2(N(C)C)CCCCC2)cc1`, for which the inhibition was inactive: -7.27%.

As for `CCN1CCCC(OC(=O)C2(O)c3ccccc3C=Cc3ccccc32)C1` (centres undefined), the inhibition was inactive: -3.75%. As to `Cc1cc(C(=O)NCC2(N3CCCCC3)CCCCC2)ccc1[N+](=O)[O-]`, the inhibition is inactive: -13.1%. In the case of `O=C(NCC1(N2CCCCC2)CCCCC1)c1cccc(Br)c1` it was inactive: -4.16%; in that of `C=CCN1CCN(CCOC(=O)C(O)(c2ccccc2)c2ccccc2)CC1`, inactive: -3.54%; in that of `O=C(NCC1(N2CCCCC2)CCCCC1)c1cc(F)c(F)cc1Cl`, inactive: 1.03%. The value for `Cc1ccccc1C(=O)NCC1(N2CCCCC2)CCCCC1` was inactive: -2.87%; that for `CN(C)c1ccc(C(=O)NCC2(N(C)C)CCCCC2)cc1` was inactive: -2.63%; that for `CN(C)C1CCCC1OC(=O)C(O)(c1ccccc1)c1ccccc1` (centres undefined) was inactive: -1.52%.

As for `Cc1ccc(C(=O)NCC2(N3CCCCC3)CCCCC2)cc1`, the inhibition was inactive: 5.51%. In the case of `CCN(CC)CC(C)C(C)OC(=O)C(O)(c1ccccc1)c1ccccc1` (centres undefined) it was inactive: -1.55%.

In the case of `COc1cc(SC)ccc1C(=O)NCC1(N(C)C)CCCCC1`, the inhibition was inactive: -0.6%. Regarding `CC(C)N1C(=O)CC2(CCN(CCOC(=O)C(O)(c3ccccc3)c3ccccc3)CC2)C1=O`, the inhibition is inactive: -8.54%. In the case of `CN1[C@@H]2CC[C@H]1CC(OC(=O)C(O)(c1ccccc1)c1ccccc1)C2` (some centres undefined), the inhibition is inactive: 10.3%. In the case of `O=C(NCC1(N2CCCCC2)CCCCC1)c1cc([N+](=O)[O-])ccc1Cl` it was inactive: -1.01%. In the case of `CC(C)Oc1ccc(C(=O)NCC2(N(C)C)CCCCC2)cc1` it was inactive: -5.4%; in that of `CN(C)c1cccc(C(=O)NCC2(N(C)C)CCCCC2)c1`, inactive: -2.57%; in that of `COc1ccc(Br)c(C(=O)NCC2(N3CCCCC3)CCCCC2)c1`, inactive: -1.11%. As to `O=C(OC1CN2CCC1CC2)C(CO)(c1ccccc1)c1ccccc1` (centres undefined), the inhibition was inactive: -2.03%. In the case of `O=C(NCC1(N2CCCCC2)CCCCC1)c1cccc(Cl)c1` it was inactive: -6.49%; in that of `COc1cccc(C(=O)NCC2(N3CCCCC3)CCCCC2)c1`, inactive: -2.97%.

`COc1ccc(Cl)cc1C(=O)NCC1(N(C)C)CCCCC1`: the inhibition is inactive: -0.33%. On to `COc1cc(C(=O)NCC2(N(C)C)CCCCC2)c([N+](=O)[O-])cc1OC`, for which the inhibition is inactive: 5.11%. The value for `CN(C)C1(CNC(=O)c2ccc(Br)cc2)CCCCC1` was inactive: 2.66%.
